Tested on: 661 W cells
Assay: 4-HNE-induced ROS production in 661 W cells
Settings: 12.5 μM, 2 hours, 4-HNE 10 μM, 24 hours, n=6

Compound: O=C(Nc1ccc(O)c(NS(=O)(=O)c2ccc(F)cc2)c1)c1ccc(-c2ccccc2)cc1 [SN-011]
- 4-HNE-induced production of ROS: Reduction in 4-HNE-induced production of ROS
